In patent publication US4395399A, “Glycopeptides and method for preparing same” (Institut Bioorganicheskoi Khimii Imeni M.M. Shemyakina …, priority 1977, dated 1983) one finds Death of animals data, which are given here for two substances.

The data set deals with 8-day Krocker sarcoma (S-180). The following applies: intravenous, mice with sarcoma S-180.

Read-outs that look alike come from different tables or passages of the source.

“Amide of N^ε [Alanyl-D-glutamyl-D-iso-asparaginyl]-lysyl-D-alanine [XII]”: the Death of animals (dose 250 mg/kg) came to 0.

The substance “amide of N^ε -[N-acetylglucosaminyl/1→4/N-acetylmuramyl-alanyl-D-glutamyl-D-iso- asparaginyl]-lysyl-D-alanine [IV]” displayed a Death of animals (dose 50 mg/kg) of 0 and a Death of animals (dose 100 mg/kg) of 0.
